Earlier results, collected in patent US10976308B2, “Plant-derived nanofibrillar cellulose hydrogel for cell culture and chemical testing” (UPM-KYMMENE CORPORATION, priority 2014, dated 2021).

How the values were obtained:
[1] = according to Khetani et al
3D liver models = conditions: by Khetani et al. 2013

For `O=C(O)Cc1ccccc1Nc1c(Cl)cccc1Cl` [diclofenac], the “Clinical drug-induced liver injury (DILI)” value [1] is given as “displays clinical DILI” and the “Toxicity in 3D liver models” value (3D liver models) is given as “shows toxicity in all tested 3D models”.
